Target: T1, human DAT (Homo sapiens, UniProt Q01959)
T1 construct: expressed in transfected cells
Assay: Competitive binding in transfected cell lines, [3H]WIN 35428
Settings: [3H]WIN 35428 as reference; cells transfected with human DAT

Protein sequences, listed by entry. Tags and fused reporters are not part of them.
UniProt Q01959, whole entry: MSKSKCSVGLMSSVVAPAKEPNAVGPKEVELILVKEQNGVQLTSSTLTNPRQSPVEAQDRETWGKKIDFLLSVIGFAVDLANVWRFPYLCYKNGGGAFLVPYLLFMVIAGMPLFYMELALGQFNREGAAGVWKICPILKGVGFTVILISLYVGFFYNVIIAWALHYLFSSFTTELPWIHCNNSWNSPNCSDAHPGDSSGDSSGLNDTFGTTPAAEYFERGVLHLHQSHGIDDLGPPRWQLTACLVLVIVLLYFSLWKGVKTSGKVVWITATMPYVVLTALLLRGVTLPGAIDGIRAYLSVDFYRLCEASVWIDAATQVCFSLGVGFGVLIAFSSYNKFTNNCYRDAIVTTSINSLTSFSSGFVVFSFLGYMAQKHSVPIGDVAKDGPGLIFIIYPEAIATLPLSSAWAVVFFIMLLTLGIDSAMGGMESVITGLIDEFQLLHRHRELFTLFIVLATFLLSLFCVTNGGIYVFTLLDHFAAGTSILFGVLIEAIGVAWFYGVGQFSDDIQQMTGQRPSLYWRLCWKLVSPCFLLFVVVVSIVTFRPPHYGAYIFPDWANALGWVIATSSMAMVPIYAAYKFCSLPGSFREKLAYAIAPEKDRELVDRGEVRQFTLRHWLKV

“N-((E)-4-fluorobut-2-en-1-yl)-2β-carbomethoxy-3β-phenylnortropane [6a]” was tested, and the Ki was 7.52 nM.

Source: patent publication US6344179B1, “Fluoralkenyl nortropanes” (Emory University, priority 1999, dated 2002)
